SMILES strings stand for the structures.

Consider one compound from US20240197588A1, “ANTIMICROBIAL COMPOSITION” (Conopco, Inc., d/b/a UNILEVER, priority 2021, published 2024).

Series [1] is described as follows: Solubility of oil (detackifying agent) in 75/25 EtOH/Water. The note with it: neat detackifying agent.
Series [2] in a line: Water solubility in oil (solvency of detackifying agent for water). To be noted: neat detackifying agent.

Turning to `CCCCC(CC)COC(=O)CCCCCCCCC(=O)OCC(CC)CCCC` (centres unmarked) [Diethyl hexyl sebacate], in series [1], the “Solubility in 75/25 EtOH/Water” value is below 10%. The “Water solubility in detackifying agent” value in series [2] was “No”.
